A short description of the data set: Linear curve fittings of the solubility points and stability areas from intersections of solubility curves. The text has this:
The solubility data of Table 2 was combined with some earlier solubility measurement data. The curve fittings of the solubility points were made as linear fittings, when % by weight is used as a concentration unit. […] The fittings were made with the aid of the spread sheet program Excel 5.0^R. The solubility equations of the different hydrate forms are shown in Equations (I) to (IV): [formula]
The fitting of the trihydrate cannot be considered absolutely exact because only three measurement points were used for fitting: one exact point, one uncertain point and one calculatory point.
The solubility points and the curve fittings are shown in a graph in FIG. 1. […] From the intersections of solubility curves it is possible to conclude the stability areas of the different lactitol forms.

With anhydrous lactitol, the “stability area (temperature)” value (in water, from the intersections of solubility curves) was above 69 °C. Under “t in ° C., s = weight of lactitol/(weight of lactitol+weight of water)×100%, between 100 and 0 ° C.”, the “solubility line s as function of temperature t (linear fitting)” value is recorded as 59.6+0.3003t.

Values taken from patent publication US6407227B1, “Process for the crystallization of lactitol” (Xyrofin Oy, priority 1997, dated 2002).
